One series addresses HER3 ECD (Homo sapiens, UniProt P21860). As to conditions: read-out: affinity; peptide ELISA with increasing concentrations, biotin-conjugated peptide, sigmoidal fit. As to the method: The purity and molecular weight were determined by high performance liquid chromatography and mass spectrometry. […] Following blocking with 1% non-fat dry milk, increasing concentrations of peptide were incubated with target protein for 1 h at 37° C. Wells were washed with 0.1% TBST, and bound peptide detected by addition of HRP-conjugated streptavidin (Abeam, Cambridge, UK), washing and ABTS substrate incubation for 10 minutes. Absorbance at 405 nm was read by spectrophotometer. […] Plates were washed and bound peptide once again detected by addition of streptavidin-HRP and ABTS and absorbance read at 405 nm.
(In general: An ELISA detects its analyte on a solid surface through an enzyme-linked reagent.)

Amino acid sequences for entries named in this document (tags omitted). Residues count along the entry.
UniProt P21860, 20-643 limits assumed: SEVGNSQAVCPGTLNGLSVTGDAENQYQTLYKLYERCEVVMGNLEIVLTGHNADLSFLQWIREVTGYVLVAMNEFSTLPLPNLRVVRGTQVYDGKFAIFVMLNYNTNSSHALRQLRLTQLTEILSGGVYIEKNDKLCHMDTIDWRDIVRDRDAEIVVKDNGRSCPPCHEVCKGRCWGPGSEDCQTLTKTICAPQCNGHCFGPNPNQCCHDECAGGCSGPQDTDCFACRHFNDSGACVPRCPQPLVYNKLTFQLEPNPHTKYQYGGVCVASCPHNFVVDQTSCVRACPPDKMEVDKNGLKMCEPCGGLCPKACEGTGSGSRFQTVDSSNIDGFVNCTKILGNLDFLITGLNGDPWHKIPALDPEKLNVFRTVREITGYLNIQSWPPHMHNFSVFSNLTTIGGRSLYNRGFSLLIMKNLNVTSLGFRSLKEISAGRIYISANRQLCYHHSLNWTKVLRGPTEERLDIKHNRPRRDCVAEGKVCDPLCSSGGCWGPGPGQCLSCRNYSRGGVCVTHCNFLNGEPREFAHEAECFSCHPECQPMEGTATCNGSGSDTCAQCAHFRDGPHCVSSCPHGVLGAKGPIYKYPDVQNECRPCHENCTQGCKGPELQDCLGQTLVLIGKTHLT

For series [1], the system named is HCC-1954 (low HER3 expressing breast cancer) tumors. Also noted: species or system Nu/nu mice. As to conditions: mouse, in vivo. As to the method: (§1) The peptide was radio labeled with the radiometal ^68Ga eluted from a ^68Ge/^68Ga generator (iThemba, South Africa) in 0.05M HCl. The pH of the elution was adjusted to approximately 4 by 2M=2-[4-(2-hydroxyethyl) piperazin-1-yl]ethanesulfonic acid and 100 ng of peptide reacted with the elution for 10 min at room temperature. Peptide was purified from free ^68Ga by reverse phase C18 cartridge (Waters, Milford, MA) and purity determined by ITLC. The peptide was then prepared in normal saline to a specific activity of approximately 300 MBq/mg for injection into mice. Nu/nu mice bearing either 22RV1 (high HER3 expressing prostate cancer) or HCC-1954 (low HER3 expressing breast cancer) tumors were implanted in the right upper flank of mice and grown to approximately 5-7 mm. Radiolabeled HER3 peptide was injected intravenously and allowed to circulate for 1 h prior to PET imaging. PET images were acquired on an Inveon micro PET/CT (Siemens, Knoxville, TN) for 15 minutes in list mode, followed by CT acquisition. Images were constructed using 3D-MLEM (20 subsets) and corrected for scatter and randoms. The tumor and blood uptake was calculated in a 3D region of interest drawn around the tumor and heart, respectively, using CT guidance. Images were post-processed using VivoQuant (InviCRO, Boston, MA).

Series [2] relates to 22RV1 (high HER3 expressing prostate cancer) tumors. On the set-up: species or system Nu/nu mice. As to conditions: mouse, in vivo. As to the method:
as §1

As to C-L-P-T-K-F-R-S-C [HER3P1], the Kd at HER3 ECD was found to be 270 nM. The “tumor to background ratios” value is recorded as 0.84-0.93 in series [1] and 1.59-3.32 in series [2].

The record behind these values is patent US12285502B2, “HER3 peptides for imaging and radiotherapy” (The General Hospital Corporation, priority 2016, dated 2025).
